Test system: human A431 tumor cells xenograft
Test: A431 xenograft tumor model, tumor volume and survival (Example 10)
Type: in vivo, mouse
Details: Balb/c nude mice
Procedure: Female Balb/c nude mice were injected subcutaneously with a suspension of human A431 tumor cells. Under the skin of the mice, a human epidermal carcinoma developed in the xenograft animal tumor model. After injection of the tumor cells, the xenograft tumor was allowed to develop to a size of approximately 170-180 mm^3. The A431 tumor cells have the following characteristics: high EGFR expressors, medium CD71 expressors, low HER2 expressors.
In Table 6A, the results of the treatment of control mice and tumor-bearing mice are presented. Tumor-bearing mice were treated with the indicated antibodies directed to either human Her2/neu, human EGFR, or human CD71, which are cell-surface receptors on the xenograft tumor. Cetuximab was covalently conjugated with saponin SO1861. […] The dose of the ADCs was sub-optimal in the tumor model. That is to say, from previous experiments, it was established at which sub-optimal dose of the ADCs no tumor-regression or arrest of tumor growth would be observable.

Substance	outcome (death/euthanasia or survival)	tumor size (volume) (sub-optimal ADC dose, tumor 170-180 mm^3 at start) [mm^3]
Cetuximab-SO1861: SO1861-EMCH conjugated via cysteine residues to cetuximab	death/euthanasia	2000
Cetuximab: monoclonal antibody recognizing and binding human EGFR	(death/euthanasia)	–

— patent US20230270872A1, “CONJUGATE OF SAPONIN AND SINGLE-DOMAIN ANTIBODY, PHARMACEUTICAL COMPOSITION COMPRISING SAID CONJUGATE, THERAPEUTIC USE THEREOF” (SAPREME TECHNOLOGIES B.V., priority 2020, published 2023)
